Laboratory results as given in US20240254255A1 (Regeneron, published 2024).

Target: T1, hErbB2-MMH (human HER2 ectodomain with C-terminal myc-myc-hexahistidine tag) (human, UniProt P04626 23-652)
T1 construct: also called Her2 ECD; Her2 protein
Assay: SPR (MASS-2), ADC captured on anti-human Fc, hErbB2-MMH in solution, 25 C

Kd: 0.626 nM
B1: BsAb1-Tubulysin 1A-LP (Anti HER2 BsAb1-PEG3-N3-Tubulysin 1A-LP) (bispecific antibody, human IgG4 S228P, kappa)
heavy 1: EVQLVESGGGLAQPGGSLRLSCAASGFSISDYEIHWVRQVPGKGLEWVSGIGSAGNTYYPGAVKGRFTISRENAKNSLYLQVNSLTVGDTAVYYCARVWSPLYYFGLDVWGQGTTVTVSSASTKGPSVFPLAPCSRSTSESTAALGCLVKDYFPEPVTVSWNSGALTSGVHTFPAVLQSSGLYSLSSVVTVPSSSLGTKTYTCNVDHKPSNTKVDKRVESKYGPPCPPCPAPEFLGGPSVFLFPPKPKDTLMISRTPEVTCVVVDVSQEDPEVQFNWYVDGVEVHNAKTKPREEQFNSTYRVVSVLTVLHQDWLNGKEYKCKVSNKGLPSSIEKTISKAKGQPREPQVYTLPPSQEEMTKNQVSLTCLVKGFYPSDIAVEWESNGQPENNYKTTPPVLDSDGSFFLYSRLTVDKSRWQEGNVFSCSVMHEALHNRFTQKSLSLSPGK
heavy 2: not shown
light: not shown
modifications: deglycosylated (PNGase F); Q295 carries azido-PEG3-amine clicked to Tubulysin 1A-LP
notes: Site-specific antibody-drug conjugate of BsAb1; also called HER2xHER2-M830
